Drawing on ChEMBL document CHEMBL5032503, “Propranolol Activates the Orphan Nuclear Receptor TLX to Counteract Proliferation and Migration of Glioblastoma Cells” (J Med Chem, 2021), this text covers Activity for one molecule.

Protein sequences, listed by entry. Tags and fused reporters are not part of them. Lines headed by an entry give the natural chain unless they say otherwise; changes in a name come on top.
UniProt Q9Y466: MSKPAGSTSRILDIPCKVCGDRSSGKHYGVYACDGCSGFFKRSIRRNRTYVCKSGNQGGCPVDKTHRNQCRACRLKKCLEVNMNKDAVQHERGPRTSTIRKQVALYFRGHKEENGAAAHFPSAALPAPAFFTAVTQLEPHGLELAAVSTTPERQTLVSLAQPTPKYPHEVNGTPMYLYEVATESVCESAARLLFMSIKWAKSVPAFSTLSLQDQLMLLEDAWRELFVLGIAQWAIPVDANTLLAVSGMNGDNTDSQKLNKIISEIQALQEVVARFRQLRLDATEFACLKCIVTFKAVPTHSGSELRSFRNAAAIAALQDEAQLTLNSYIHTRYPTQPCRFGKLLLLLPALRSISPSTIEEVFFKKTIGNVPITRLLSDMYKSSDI

The structures appear in SMILES notation. Activity calls are given as the source filed them. No cut-off for these calls is given here.

The test addresses Nuclear receptor subfamily 2 group E member 1 (Homo sapiens, UniProt Q9Y466). Briefly: Agonist activity at TAE expressed in human HEK293T cells coexpressing human full-length TLX/Gal4-VP 16 assessed as renilla luciferase reporter activity incubated for 14 hrs by Dual-glo luciferase. It is filed as cell-based. Background: A reporter such as luciferase makes a cellular process visible.

For `CC(C)NCC(O)c1ccc(NS(C)(=O)=O)cc1` (racemic) [SOTALOL], the result was inactive.
